Target: endogenous c-MET immunoprecipitated from 293T cells (human, UniProt P08581)
Assay: direct interaction assay: in-vitro translated Flag-HGF 4Cys-4Ala added to endogenous c-MET immunoprecipitated on anti-MET beads, immunoblot
Protocol: FIG. 3A-E: HGF PAN domain regulates c-MET signaling cascade via four core cysteines. A. Mutation of the core cysteines in HGF PAN domain blocks HGF-induced c-MET signaling. Both 293T and U-87 MG cells were stimulated with HGF WT and HGF 4Cys-4Ala proteins for the indicated amount of time. […] Representative blot images from n=2 experiments for individual cell line. B. Immunoblot showing that the core cysteines on the HGF PAN domain regulate its binding with c-MET. c-MET was immunoprecipitated from 293T cells on anti-MET bound beads. In-vitro translated Flag-tagged HGF WT and HGF 4Cys-4Ala were added to the beads as indicated to detect the interaction between endogenous c-MET and Flag-HGF WT and Flag-HGF 4Cys-4Ala. C. Right panel, quantification of the band intensities (n=2; ***p<0.0005 (Student's t test)). Immunoprecipitated Flag-HGFs band intensities were normalized to the respective c-MET IP bands and then further normalized to HGF-WT. D. HGF PAN domain defines perinuclear translocation of c-MET in cells. HeLa cells were stimulated with HGF WT and HGF 4Cys-4Ala proteins for the indicated amount of time following serum starvation. Post stimulation cells were fixed, mounted and endogenous c-MET localization pattern was visualized using Zeiss LSM 710 at 63× objective. Scale bars represent 20 μm. […] E. PAN domain regulates c-MET ubiquitination. […]

binding result: no binding
B1: Flag-HGF 4Cys-4Ala (ligand, human, UniProt P14210 32-728, looked up)
chain: QRKRRNTIHEFKKSAKTTLIKIDPALKIKTKKVNTADQAANRATRNKGLPFTAKAFVFDKARKQALWFPFNSMSSGVKKEFGHEFDLYENKDYIRNCIIGKGRSYKGTVSITKSGIKCQPWSSMIPHEHSFLPSSYRGKDLQENYCRNPRGEEGGPWCFTSNPEVRYEVCDIPQCSEVECMTCNGESYRGLMDHTESGKICQRWDHQTPHRHKFLPERYPDKGFDDNYCRNPDGQPRPWCYTLDPHTRWEYCAIKTCADNTMNDTDVPLETTECIQGQGEGYRGTVNTIWNGIPCQRWDSQYPHEHDMTPENFKCKDLRENYCRNPDGSESPWCFTTDPNIRVGYCSQIPNCDMSHGQDCYRGNGKNYMGNLSQTRSGLTCSMWDKNMEDLHRHIFWEPDASKLNENYCRNPDDDAHGPWCYTGNPLIPWDYCPISRCEGDTTPTIVNLDHPVISCAKTKQLRVVNGIPTRTNIGWMVSLRYRNKHICGGSLIKESWVLTARQCFPSRDLKDYEAWLGIHDVHGRGDEKCKQVLNVSQLVYGPEGSDLVLMKLARPAVLDDFVSTIDLPNYGCTIPEKTSCSVYGWGYTGLINYDGLLRVAHLYIMGNEKCSQHHRGKVTLNESEICAGAEKIGSGPCEGDYGGPLVCEQHKMRMVLGVIVPGRGCAIPNRPGIFVRVAYYAKWIHKIILTYKVPQS
notes: In-vitro translated for the c-MET pull-down; Purified protein was used to stimulate cells, and it is treated here as the same construct; also called 4Cys-4Ala HGF; PAN mutant HGF; not shown: Flag tag

— US20240000956A1 (UT BATTELLE, published 2024)
